Two substances from patent US6265438A, “Vitamin compatible micronutrient supplement” (Heritage Technologies, LLC, priority 1999, dated 2001) can be followed below.

Like-named read-outs stand apart in the source and are kept apart here.

The conditions of data set [1]: 90% humidity, 140 hours.
Data set [2] can be described thus: Water solubility.

Turning to tribasic zinc chloride, the Water solubility entry was “about 23 mg of zinc per liter”. Besides, in data set [1], the “Hygroscopicity (in words)” value was “zero weight gain”. As to basic ferrous chloride, in data set [2], the Water solubility result is given as “about 500 mg per liter”.
